Test results from US11103510B2, “JAK1 pathway inhibitors for the treatment of cytokine-related disorders” (Incyte Corporation, priority 2018, dated 2021).

Target: human JAK1 (a.a. 837-1142) (Homo sapiens, UniProt P23458)
Experiment: In vitro JAK kinase assay (HTRF), JAK1
Type: biochemical
Details: 1 mM ATP

**Q.** How did the IC50 turn out when `CN(C)Cc1cc(F)cc(OC2CCN(CC(CC#N)n3cc(-c4ncnc5[nH]ccc45)cn3)CC2)c1` (single isomer, unassigned) [Compound 14, 4-(4-{3-[(dimethylamino)methyl]-5-fluorophenoxy}piperidin-1-yl)-3-[4-(7H-pyrrolo[2,3-d]pyrimidin-4-yl)-1H-pyrazol-1-yl]butanenitrile] was run?
**A.** < 10 nM
